Results on one compound are retold here after ChEMBL document CHEMBL2311518 (J Med Chem, 2013).

Sequences of proteins named here, by UniProt entry; tags and fusion partners are left off. Residues count along the entry.
UniProt P58154, 20-229 limits assumed: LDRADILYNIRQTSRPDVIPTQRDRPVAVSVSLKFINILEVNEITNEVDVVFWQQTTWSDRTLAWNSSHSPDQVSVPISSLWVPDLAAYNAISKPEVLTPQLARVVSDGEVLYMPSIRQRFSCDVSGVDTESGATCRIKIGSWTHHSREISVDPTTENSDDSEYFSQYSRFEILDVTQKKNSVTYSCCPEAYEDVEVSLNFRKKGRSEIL

The test deals with Acetylcholine-binding protein (Lymnaea stagnalis, UniProt P58154). To be noted: hek293.

In turn, `CN1CCC[C@H]1c1cccnc1` [NICOTINE] showed a Ki of 83 nM and a pKi of 7.08.
